This test deals with recombinant human ALX receptor (HEK293-hALXR-Gα16 cells) (Homo sapiens (Human), UniProt P25090). As to the kind of experiment: Intracellular calcium measurements (FLIPR), ALX receptor agonistic activity. The following applies: read-out: EC50 (agonistic activity with respect to the ALX receptor), normalized to 10 nM WKYMVm. How it is done: The ALX receptor agonistic activity of the compounds of formula (I) is determined in accordance with the following experimental method.
Intracellular Calcium Measurements:
Cells expressing recombinant human ALX receptor and the G-protein Gα16 (HEK293-hALXR-Gα16) were grown to 80% confluency in Growing Medium (GM). Cells were detached from culture dishes with a cell dissociation buffer (Invitrogen, 13151-014), and collected by centrifugation at 1,000 rpm at rt for 5 min in Assay Buffer (AB) (equal parts of Hank's BSS (Gibco, 14065-049) and DMEM without Phenol Red (Gibco, 11880-028)). After 60 min incubation at 37° C. under 5% CO2 in AB supplemented with 1 μM Fluo-4 (AM) (Invitrogen, F14202) and 20 mM HEPES (Gibco, 15630-056), the cells were washed and resuspended in AB. They were then seeded onto 384-well FLIPR assay plates (Greiner, 781091) at 50,000 cells in 70 μl per well and sedimented by centrifugation at 1,000 rpm for 1 min. Stock solutions of test compounds were made up at a concentration of 10 mM in DMSO, and serially diluted in AB to concentrations required for activation dose response curves. WKYMVm (Phoenix Peptides) was used as a reference agonist. […] Changes in fluorescence were monitored before and after the addition of test compounds at lex=488 nm and lem=540 nm. […]

Sequences of proteins named here, by UniProt entry; tags and fusion partners are left off.
UniProt P25090, whole entry: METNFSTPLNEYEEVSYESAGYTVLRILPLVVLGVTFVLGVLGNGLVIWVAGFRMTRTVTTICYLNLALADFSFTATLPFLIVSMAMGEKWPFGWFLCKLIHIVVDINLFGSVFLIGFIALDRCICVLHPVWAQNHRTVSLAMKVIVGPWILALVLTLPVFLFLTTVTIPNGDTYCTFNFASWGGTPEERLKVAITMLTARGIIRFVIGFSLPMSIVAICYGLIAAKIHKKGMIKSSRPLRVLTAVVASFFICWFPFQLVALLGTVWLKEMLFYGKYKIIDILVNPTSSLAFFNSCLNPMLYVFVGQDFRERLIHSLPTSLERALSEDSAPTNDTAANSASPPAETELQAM

For the molecule `CC(=O)c1coc(Cn2ncc(NC(=O)c3ncoc3-c3ccccc3)n2)n1`, the EC50 – broadly, the concentration that produces a half-maximal response – worked out at 0.7 nM. For the molecule `CC(=O)c1csc(Cn2ncc(NC(=O)c3nc(C)oc3-c3cccc(C)c3)n2)n1`, the EC50 amounted to 2.2 nM.

The values above are taken from US9346793B2, “Hydroxylated aminotriazole derivatives as ALX receptor agonists” (Actelion Pharmaceuticals, LTD., priority 2010, dated 2016).
